This series deals with P-glycoprotein (Homo sapiens, UniProt P08183).

Protein sequences, listed by entry. Tags and fused reporters are not part of them.
UniProt P08183, whole entry: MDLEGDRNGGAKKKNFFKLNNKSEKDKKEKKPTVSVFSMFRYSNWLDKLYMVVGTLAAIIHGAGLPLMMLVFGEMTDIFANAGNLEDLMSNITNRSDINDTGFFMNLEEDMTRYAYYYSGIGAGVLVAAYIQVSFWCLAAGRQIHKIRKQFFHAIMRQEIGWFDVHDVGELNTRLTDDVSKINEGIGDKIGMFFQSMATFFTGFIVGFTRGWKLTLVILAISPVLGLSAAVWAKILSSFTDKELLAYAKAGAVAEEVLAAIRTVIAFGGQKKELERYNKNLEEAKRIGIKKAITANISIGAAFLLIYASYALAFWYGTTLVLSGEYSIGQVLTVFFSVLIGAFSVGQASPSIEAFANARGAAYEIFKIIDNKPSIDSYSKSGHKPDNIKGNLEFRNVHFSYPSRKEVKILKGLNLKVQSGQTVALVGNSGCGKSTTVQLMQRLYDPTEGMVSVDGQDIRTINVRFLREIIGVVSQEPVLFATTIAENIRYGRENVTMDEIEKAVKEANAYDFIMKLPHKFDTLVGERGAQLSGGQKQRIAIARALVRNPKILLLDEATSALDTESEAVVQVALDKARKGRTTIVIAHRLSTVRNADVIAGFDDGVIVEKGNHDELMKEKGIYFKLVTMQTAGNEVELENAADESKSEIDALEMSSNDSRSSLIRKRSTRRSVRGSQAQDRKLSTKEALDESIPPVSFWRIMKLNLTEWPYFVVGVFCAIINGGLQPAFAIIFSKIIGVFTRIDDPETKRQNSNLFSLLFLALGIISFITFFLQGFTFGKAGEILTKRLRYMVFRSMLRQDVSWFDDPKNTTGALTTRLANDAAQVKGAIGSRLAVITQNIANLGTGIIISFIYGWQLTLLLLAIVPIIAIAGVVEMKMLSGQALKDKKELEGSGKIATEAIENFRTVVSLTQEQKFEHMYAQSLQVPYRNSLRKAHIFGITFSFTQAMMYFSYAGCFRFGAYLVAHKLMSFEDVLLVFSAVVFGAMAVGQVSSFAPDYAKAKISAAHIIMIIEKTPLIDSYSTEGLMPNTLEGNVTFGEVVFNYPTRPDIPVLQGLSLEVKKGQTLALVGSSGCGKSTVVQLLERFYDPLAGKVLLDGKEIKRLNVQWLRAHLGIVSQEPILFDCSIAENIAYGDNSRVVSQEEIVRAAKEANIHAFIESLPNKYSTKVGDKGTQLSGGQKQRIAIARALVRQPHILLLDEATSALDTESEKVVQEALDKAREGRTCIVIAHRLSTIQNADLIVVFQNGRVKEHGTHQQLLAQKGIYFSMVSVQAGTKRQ

With IL-2, the “effect on P-glycoprotein activity (Rh123 accumulation)” value was “No apparent effects on P-glycoprotein”.

The record behind these values is US5972598A, “Methods for preventing multidrug resistance in cancer cells” (priority 1995, dated 1999).
